ChEMBL document CHEMBL3272314, “Sturcture-activity relationship of daunorubicin and its peptide derivatives” (J Med Chem, 1976)

How the values were obtained:
Salmonidae [1] = experiment: Binding affinity to salmon sperm DNA assessed as first order dissociation rate at pH 7.8 by stop-flow technique in presence of 21 mM Na+ relative to pH 6.2
Salmonidae [2] = experiment: Binding affinity to salmon sperm DNA assessed as first order dissociation rate at pH 7.8 by stop-flow technique in presence of 201 mM Na+ relative to daunorubicin complex
Salmonidae [3] = experiment: Binding affinity to salmon sperm DNA assessed as first order dissociation rate at pH 7.8 by stop-flow technique in presence of 201 mM Na+ relative to 1 mM Na+ ionic strength

Row | Ratio (Salmonidae [1]) | Ratio (Salmonidae [2]) | Ratio (Salmonidae [3]) | Compound
1 | 1.25 | 5.35 | 4.98 | COc1cccc2c1C(=O)c1c(O)c3c(c(O)c1C2=O)C[C@@](O)(C(C)=O)C[C@@H]3O[C@H]1C[C@H](NC(=O)CNC(=O)CN(C)C)[C@H](O)[C@H](C)O1
2 | 1.24 | 5.9 | 5.75 | CCCN(CCC)CC(=O)N[C@H]1C[C@H](O[C@H]2C[C@](O)(C(C)=O)Cc3c(O)c4c(c(O)c32)C(=O)c2c(OC)cccc2C4=O)O[C@@H](C)[C@H]1O
3 | 1.37 | 4.06 | 4.33 | COc1cccc2c1C(=O)c1c(O)c3c(c(O)c1C2=O)C[C@@](O)(C(C)=O)C[C@@H]3O[C@H]1C[C@H](NC(=O)CN(C)C)[C@H](O)[C@H](C)O1
